Source: patent US10052296B2, “Formulations for treating pain” (priority 2016, dated 2018)

Experiments:
[1] = APAP alone, overall pH range 4.0-8.0
physchem = details: water, thermodynamic from solid, Acetaminophen solubility, APAP alone in water

In the case of `CC(=O)Nc1ccc(O)cc1` [Acetaminophen], the “difference in solubility of APAP over pH” value [1] was “no significant difference”, the solubility (physchem; pH 4.5, aqueous buffer, pH 4.5) was 14.1 mg/mL (≈ 93.3 mM) and the solubility (physchem; pH 8, aqueous buffer, pH 8.0) was 14.2 mg/mL (≈ 93.9 mM).

In brackets after ≈: the same amount, converted by molar mass.
